Measured values published in patent US5643907A, “Pharmaceutical composition containing 5-morpholinomethyl-3-(4-chlorobenzylideneamine)-2-oxazolidinone and its use for the treatment of CNS disorders” (priority 1993, dated 1997).

Tested on: uptake of serotonin
Assay: Effect on the uptake of serotonin in vivo (protection from p-chloramphetamine)
[1] = applied before p-chloramphetamine

Question: For `CN(C)CCCC1(c2ccc(F)cc2)OCc2cc(C#N)ccc21` (stereo not drawn) [Citalopram, citalopram], which “serotonin, % in relation to the group after p-chloramphetamine” value (20 mg/kg before p-chloramphetamine (table: before 6-OHDA)) is on record?
Answer: Its value is 155%.

Question: And the “increase of amine (serotonin) level over the level of control” value [1]?
Answer: Its value is 40%.

Question: What about the “prevention of the decline of the amine level” value [1] of the same compound?
Answer: Its value is “prevented the decline of the amine level”.
